Patent US5411733A (priority 1992, dated 1995)

Test system: CMV
Type: cell-based

Compound	influence on CMV proliferation
C[C@]12C=CC(=O)C=C1CC[C@@H]1[C@@H]2[C@@H](O)C[C@@]2(C)[C@H]1CC[C@]2(O)C(=O)CO [predonine]	accelerated CMV proliferation
Cn1cnc([N+](=O)[O-])c1Sc1ncnc2nc[nH]c12 [azathioprine]	inhibited CMV proliferation
